Assay results: ChEMBL document CHEMBL3714716, “Modulators of the relaxin receptor 1” (2015)

Key:
[1] = target: T1, Relaxin receptor 1 (Mus musculus) (UniProt Q6R6I7); assay: Agonist activity at mouse RXFP1 receptor expressed in HEK293 cells assessed as stimulation of cAMP production at 66 uM incubated for 30 mins by TR-FRET based HTRF assay relative to relaxin; format: functional, cell-based; design: scale not given: the % may be the effect or the level left
T1 sequence (whole entry): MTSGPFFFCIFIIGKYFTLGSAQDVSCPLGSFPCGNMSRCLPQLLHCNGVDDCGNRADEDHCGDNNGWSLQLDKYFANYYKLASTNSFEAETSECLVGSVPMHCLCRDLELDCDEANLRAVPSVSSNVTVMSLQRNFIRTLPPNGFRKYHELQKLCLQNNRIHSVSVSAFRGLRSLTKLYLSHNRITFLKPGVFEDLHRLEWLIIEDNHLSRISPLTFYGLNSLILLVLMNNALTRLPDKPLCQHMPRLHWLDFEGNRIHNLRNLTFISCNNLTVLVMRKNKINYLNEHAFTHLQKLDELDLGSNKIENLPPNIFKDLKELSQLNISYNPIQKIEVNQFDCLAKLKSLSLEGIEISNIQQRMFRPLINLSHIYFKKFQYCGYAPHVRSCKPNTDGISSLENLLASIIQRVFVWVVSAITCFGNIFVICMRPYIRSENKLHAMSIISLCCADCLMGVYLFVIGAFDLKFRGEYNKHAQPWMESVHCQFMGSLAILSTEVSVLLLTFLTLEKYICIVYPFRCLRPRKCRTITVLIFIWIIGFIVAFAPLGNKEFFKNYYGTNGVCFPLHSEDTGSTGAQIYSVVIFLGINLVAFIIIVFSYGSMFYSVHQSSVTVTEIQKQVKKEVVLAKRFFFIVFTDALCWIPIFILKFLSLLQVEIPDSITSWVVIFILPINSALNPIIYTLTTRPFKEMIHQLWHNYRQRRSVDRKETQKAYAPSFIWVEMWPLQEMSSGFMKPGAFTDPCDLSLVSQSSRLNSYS

[2] = target: T1, Relaxin receptor 1 (Mus musculus); assay: Agonist activity at mouse RXFP1 receptor M10 Ile646Val and Leu647Val mutant expressed in HEK293 cells assessed as stimulation of cAMP production at 66 uM incubated for 30 mins by TR-FRET based HTRF assay relative to relaxin; format: functional, cell-based; design: scale not given: the % may be the effect or the level left

Compound: CC(C)Oc1ccccc1C(=O)Nc1ccccc1C(=O)Nc1cccc(S(=O)(=O)C(F)(F)F)c1
- Activity [1]: 0%
- Activity [2]: 0%
